Screening results from PubChem BioAssay.
LMNA splice mod – modulators of lamin A splicing; actives 0.01% (n = 200,000); HeLa LMNA splicing GFP/RFP minigene ratio, 48 h; Potency, µM (doses to about 46.1 µM), inactives show top-dose ratio change, negative = inhibition, most hits filed as inhibitors; active = well fitted inhibition curve with a large enough effect in the signal ratio, with a control signal flat, not every such curve was filed as active; inconclusive = small, poorly fitted or top-dose-only effect, or effect the other way, or a change in a side signal; the % refers to the signal ratio; note: potency is the fitted concentration of half-maximal effect; % is set by controls: 0 for no effect and ±100 for the full control effect
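S3 HeLa stable clones carrying a lamin A-EGFP splicing minigene plus DsRed2 were seeded at 600 cells/well in Opti-MEM with 2% FBS, pin-dosed and incubated 48 h at 37°C. Acumen cytometry (488 nm) gave the GFP/RFP total-intensity ratio.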
G9a inh – G9a (human) methyltransferase inhibition; Q96KQ7; G9a H3K9 monomethylation, AlphaScreen, 2 h; Potency, µM (doses to about 102 µM), for the others: top-dose activity, negative = inhibition, hits mostly inhibitors; actives 8.8% (n = 350,000); note: potency is the fitted concentration of half-maximal effect; % is set by controls: 0 for no effect and ±100 for the full control effect; nearly all actives have a fitted effect of over 75% in size
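Using a bead-based AlphaScreen, monomethylated H3K9 product from 2 h room-temperature reactions (G9a 20 nM, peptide 500 nM, SAM 20 uM) was detected with 0.5 ug/mL rabbit anti-H3K9me1 antibody.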
JMJD2E inh – JMJD2E (human) inhibition | B2RXH2 | JMJD2E catalytic domain, FDH-coupled NADH fluorescence (FDH is formaldehyde dehydrogenase) | Potency, µM (doses to about 57.1 µM), for the others: top-dose activity change, negative = inhibition, actives largely listed as inhibitors | actives 1.6% (n = 230,000); active = well fitted inhibition curve with a large enough effect, not every such curve was filed as active; inconclusive = small, poorly fitted or top-dose-only effect, or another doubt; inactive = no such curve, though single readings can be large or run the other way;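 note: potency is the fitted concentration of half-maximal effect; 0% = wells with enzyme and -100% = buffer wells without enzyme; nearly all actives have a fitted effect of over 50% in size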
miR-21 reporter – raises the signal of a miR-21 reporter; HeLa miR-21 FLuc reporter, luciferase, 48 h; Potency, µM (top dose mostly 38.3 µM), for inactives: at the highest dose reporter change, positive = more light; AID 2288; 340,000 tested, under 10 active; active = well fitted rising curve with a large enough effect; inconclusive = small, poorly fitted or top-dose-only effect; inactive = no such curve, though single readings can be large or run the other way;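 note: % of control where 0% means no effect; miR-21 action dims this reporter so a rising signal means less miR-21 action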
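HeLa miR-21-FLuc reporter line, endogenous miR-21; 2000 cells/well in DMEM/10% FBS; compound titration up to ~40uM final, 48 h, 37 degree Celsius; luciferase detection reagent, 15 min lysis, CCD luminescence.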
Sfp PPTase inh – qHTS Assay for Inhibitors of Bacillus subtilis Sfp phosphopantetheinyl transferase (PPTase) | 4'-phosphopantetheinyl transferase ffp (Bacillus subtilis), Q9F4F7 | Biochemical Sfp PPTase activity, qHTS | Potency, µM, for inactives: max response, negative = inhibition, actives largely listed as inhibitors | 3.5% of 310,000 active; active = well fitted inhibition curve with a large enough effect; inconclusive = small, poorly fitted or top-dose-only effect, or another doubt; inactive = no such curve, though single readings can be large or run the other way;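 also: the enzyme is Sfp with the accession as filed and its product quenches rhodamine fluorescence; potency is read from the fitted curve at half-maximal effect; 0% = enzyme reaction without inhibitor and -100% = no enzyme wells; top concentration of the series not given in the record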
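With Hepes-Na pH 7.6 buffer containing 10 mM MgCl2, Sfp (15 nM) modified BHQ-2-YbbR (12.5 uM) using rhodamine-CoA (5 uM). Two reads 30 minutes apart at 525/598 nm yielded each well's rate.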
ALDH1A1 inh – ALDH1A1 (human) enzyme inhibition. actives 7.3% (n = 220,000). Potency, µM (titrated, usually from 75.3 µM), inactives show at the highest dose activity, negative = inhibition, hits mostly inhibitors. Purified ALDH1A1, NADH fluorescence, propionaldehyde substrate; active = well fitted inhibition curve with a large enough effect, not every such curve was filed as active; inconclusive = small, poorly fitted or top-dose-only effect, or another doubt; inactive = no such curve, though single readings can be large or run the other way;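 note: potency is the fitted concentration of half-maximal effect; plate controls were no enzyme wells and a reference inhibitor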
* marks the source's active call; other numbers are inactive results; ? = inconclusive; . = not tested or not shown; [ ] = remark or other dose. A selection: hits, their analogues and other compounds. The true share with any hit is near 13%. Unless noted, calls come from the whole dose curve; as a rule, active = well fitted curve in the direction sought with a large enough effect; inconclusive = small, poorly fitted or top-dose-only effect, or another doubt; inactive = no such curve, though single readings can be large; an effect the other way counts as inactive or inconclusive.

cpd | molecule | LMNA splice mod | G9a inh | JMJD2E inh
1 | COc1ccccc1-n1c(CNC(=O)COc2ccccc2)n[nH]c1=S | -5% | ? | -8%
2 | COc1ccc(CC(=O)NCc2n[nH]c(=S)n2-c2ccccc2)cc1 | -4%[46 µM] | 14µM* | 8%
3 | O=[N+]([O-])c1ccc(N2CCN(C(=S)NC3CCCCC3)CC2)cc1 | 14% | 7% | -3%
4 | CCCN1CCN(C(=S)Nc2ccc([N+](=O)[O-])cc2)CC1 | ? | 28µM* | 1%
5 | O=C(NC(=S)N1CCN(c2ccc([N+](=O)[O-])cc2)CC1)c1ccccc1F | ? | ? | 12%
6 | O=C(NC(=S)N1CCN(c2ccc([N+](=O)[O-])cc2)CC1)c1ccc(F)cc1 | ? | -41%[59 µM] | -3%
7 | CCOc1ccc(S(=O)(=O)N2CCC(C(=O)NCc3ccncc3)CC2)cc1Cl | . | -11% | .
8 | O=[N+]([O-])c1cccc(C(=S)N2CCN(c3ccc(F)cc3)CC2)c1 | -11%[46 µM] | 10µM* | -17%

cpd | miR-21 reporter | Sfp PPTase inh | ALDH1A1 inh
1 | -1% | -27% | 2.2µM*
2 | 5% | -2% | -7%
3 | 8% | 11% | 5µM*
4 | -6% | ? | 32µM*
5 | -1% | 15% | 25µM*
6 | 0% | 6% | 7.1µM*
7 | -6% | 8% | .
8 | -7% | 28µM* | 22µM*

Continued.
cpd | molecule | LMNA splice mod | G9a inh | JMJD2E inh
9 | O=[N+]([O-])c1ccc(N2CCN(C(=S)Nc3ccccc3)CC2)cc1 | . | -15% | -1%
10 | Cc1ccc(C(=O)c2nocc2C(=O)c2cccs2)cc1 | 4% | 2%[59 µM] | ?
11 | CC(C)N1C(=O)/C(=C/c2nc3ccccc3c(=O)n2-c2ccccc2)c2ccccc21 | -17% | 10µM* | ?
12 | CC(C)N1C(=O)/C(=C\c2nc3ccccc3c(=O)n2-c2ccccc2)c2ccccc21 | ? | ? | 1%
13 | CSc1nsc(SC)c1C(=O)NCCNS(=O)(=O)c1ccc(C)cc1 | -8% | 2.8µM* | ?
14 | N#CCCn1cc(C(=O)Nc2ccc([N+](=O)[O-])cc2)c(-c2cccs2)n1 | 3% | -29% | -4%
15 | COc1ccc(NC(=O)c2cn(CCC#N)nc2-c2cccs2)cc1 | -16% | 15%[59 µM] | 9%
16 | OCc1cnc(SCc2ccccc2F)n1Cc1ccc(F)cc1 | 11%[46 µM] | 12%[59 µM] | .

cpd | miR-21 reporter | Sfp PPTase inh | ALDH1A1 inh
9 | 0% | -5% | 1.4µM*
10 | 0% | 21% | 3.2µM*
11 | -3% | -9% | ?
12 | 12% | -4% | ?
13 | -6% | 50µM* | 25µM*
14 | 4% | 13% | 22µM*
15 | -9% | 13% | 10%
16 | 0% | . | .

Random excerpt: two records from the list.
cpd | molecule | LMNA splice mod | G9a inh | JMJD2E inh
2 | COc1ccc(CC(=O)NCc2n[nH]c(=S)n2-c2ccccc2)cc1 | -4%[46 µM] | 14µM* | 8%
16 | OCc1cnc(SCc2ccccc2F)n1Cc1ccc(F)cc1 | 11%[46 µM] | 12%[59 µM] | .

cpd | miR-21 reporter | Sfp PPTase inh | ALDH1A1 inh
2 | 5% | -2% | -7%
16 | 0% | . | .

(list continues)
cpd | molecule | LMNA splice mod | G9a inh | JMJD2E inh
17 | Cc1cc(NC(=O)C(C)C)ncc1NC(=O)c1cccc(F)c1 | 0% | -19%[59 µM] | 2%
18 | Cc1cc(NC(=O)C(C)C)ncc1NC(=O)c1ccccn1 | 10%[46 µM] | 18µM* | -3%
19 | CCCC(=O)Nc1cc(C)c(NC(=O)c2ccccn2)cn1 | 0% | 7.9µM* | -8%
20 | COc1ccc(-c2nc3scc(CCNS(=O)(=O)c4cccs4)n3n2)cc1 | -4%[46 µM] | -16%[59 µM] | .
21 | COc1ccccc1OCc1cc(C(=O)N2CCN(C)C(c3ccccc3)C2)no1 (stereo not given) | . | ? | .
22 | CN1CCN(C(=O)c2cc(COc3c(F)cccc3F)on2)CC1c1ccccc1 (stereo not given) | . | . | ?
23 | C=CCN1C(=O)/C(=C2/Sc3ccccc3N2CC)SC1=S | . | 1% | .
24 | C=CCN1C(=O)/C(=C2/Sc3ccccc3N2CCCS(=O)(=O)O)SC1=S | -3% | 40µM* | -10%

cpd | miR-21 reporter | Sfp PPTase inh | ALDH1A1 inh
17 | -1% | -11% | 12%
18 | -46% | 79µM* | -7%
19 | -34% | ? | ?
20 | 17% | . | .
21 | -30% | 12% | .
22 | ? | 10µM* | ?
23 | -6% | 6% | .
24 | -1% | 45µM* | ?

Following part.
cpd | molecule | LMNA splice mod | G9a inh | JMJD2E inh
25 | CCOc1cc(C(=O)NCCc2csc3nc(-c4ccccc4F)nn23)cc(OCC)c1OCC | -8%[46 µM] | 14%[59 µM] | .
26 | O=[N+]([O-])c1ccccc1N/N=C1\CC2CC=CC12 (stereo not given) | 7%[46 µM] | 11µM* | -3%
27 | CC1(C)OC(=O)C(=NNc2ccccc2[N+](=O)[O-])C(=O)O1 | . | ? | 0%
28 | CCc1ccc(-n2c(SCc3ccccc3Cl)nc3[nH]ncc3c2=O)cc1 | ? | -21%[59 µM] | .
29 | O=c1ccc2ccc(O)c(O)c2o1 | ? | 0.84µM* | 7.1µM*
30 | C=CCc1cccc2ccc(=O)oc12 | -12% | 17%[59 µM] | -5%
31 | O=C(NCCN1CCN(Cc2ccccc2)CC1)C1c2ccccc2C(=O)N2CCc3ccccc3C12 (stereo not given) | 16% | 3% | -3%
32 | Cc1ccc(CNC(=O)C2c3ccccc3C(=O)N3CCc4ccccc4C23)o1 (stereo not given) | 4% | 32µM* | ?

cpd | miR-21 reporter | Sfp PPTase inh | ALDH1A1 inh
25 | 1% | . | .
26 | -82% | -11% | -12%
27 | 4% | 2% | .
28 | -2% | . | .
29 | . | . | ?
30 | -2% | 1% | 2%
31 | -7% | 33% | 9%
32 | 3% | 14µM* | 25µM*

Going on with the list:
cpd | molecule | LMNA splice mod | G9a inh | JMJD2E inh
33 | O=C1S/C(=C\c2ccc(O)c([N+](=O)[O-])c2)C(=O)N1c1ccccc1Cl | . | . | -6%
34 | COc1cc(/C=C2\SC(=O)N(c3ccc(Cl)cc3)C2=O)cc([N+](=O)[O-])c1O | 6%[46 µM] | 7.9µM* | -16%
35 | COc1cc(/C=C2\SC(=O)N(c3cccc(Cl)c3)C2=O)cc([N+](=O)[O-])c1O | . | . | -10%
36 | CCOc1ccc(/C=C2\SC(=O)N(c3ccc(O)cc3)C2=O)cc1OC | . | 17% | 13%
37 | C=CCN1C(=O)C(O)(CC(=O)c2ccco2)c2cc(Br)ccc21 (stereo not given) | . | -31% | 1%
38 | O=C(CC1(O)C(=O)N(Cc2ccccc2)c2ccc(Br)cc21)c1ccccc1 (stereo not given) | . | -13%[59 µM] | .
39 | Cc1n[nH]c(C)c1C(=O)CC1(O)C(=O)N(Cc2ccccc2)c2ccc(Br)cc21 (stereo not given) | 6% | 12% | -2%
40 | OCC(O)CO | ? | 4%[59 µM] | .

cpd | miR-21 reporter | Sfp PPTase inh | ALDH1A1 inh
33 | 12% | ? | 0.45µM*
34 | -4% | -11% | -5%
35 | 0% | -8% | 0.89µM*
36 | -26% | -12% | .
37 | 28% | 13% | 7.9µM*
38 | ? | . | .
39 | 12% | -3% | 10µM*
40 | . | 10% | -6%

Some of these compounds in order of their number in ALDH1A1 inh, ascending:
nr | structure | ALDH1A1 inh
33 | O=C1S/C(=C\c2ccc(O)c([N+](=O)[O-])c2)C(=O)N1c1ccccc1Cl | 0.45µM*
35 | COc1cc(/C=C2\SC(=O)N(c3cccc(Cl)c3)C2=O)cc([N+](=O)[O-])c1O | 0.89µM*
39 | Cc1n[nH]c(C)c1C(=O)CC1(O)C(=O)N(Cc2ccccc2)c2ccc(Br)cc21 (stereo not given) | 10µM*
